Molecular target: Dehydrogenase/reductase SDR family member 9 (Homo sapiens, UniProt Q9BPW9)
Assay: Inhibition of 3alphaHSD

The chains behind the UniProt entries cited, without tags or fusion partners. Where a name states a change or a piece, a line headed by the entry shows the natural chain unless it says otherwise.
UniProt Q9BPW9: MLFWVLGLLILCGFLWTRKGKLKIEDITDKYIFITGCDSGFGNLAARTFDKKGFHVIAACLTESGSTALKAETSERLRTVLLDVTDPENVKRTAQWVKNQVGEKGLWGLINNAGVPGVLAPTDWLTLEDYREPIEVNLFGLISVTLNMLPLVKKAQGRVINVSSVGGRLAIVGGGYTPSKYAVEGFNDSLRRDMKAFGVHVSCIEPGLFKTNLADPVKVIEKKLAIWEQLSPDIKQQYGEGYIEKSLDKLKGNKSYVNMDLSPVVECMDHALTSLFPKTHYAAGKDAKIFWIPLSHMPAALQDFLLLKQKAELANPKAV

IC50: 14 µM
SMILES: COc1ccc2c(c1)c(CC(=O)O)c(C)n2C(=O)c1ccc(Cl)cc1 [INDOMETHACIN]

Reference: ChEMBL document CHEMBL1147892, “Quercinol, an anti-inflammatory chromene from the wood-rotting fungus Daedalea quercina (Oak Mazegill)” (Bioorg Med Chem Lett, 2007)
